## Ab-14 heavy chain CDR variants: yeast mating affinities

Values reported by Li et al. 2023, doi:10.1038/s41467-023-39022-2 (FLAb copy).

Target: peptide PDVDLGDISGINAS, taken from heptad repeat 2 (HR2) of SARS-CoV-2 spike.

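This is the validation round: designs drawn from the data on random variants, tested in the same kind of assay. Their group label is 14H_GP_Gibbs (GP: Gaussian process model; Gibbs: Gibbs sampling; a sequence that several methods proposed may carry one label only). AlphaSeq pools MATa yeast showing the antibodies with MATalpha yeast showing the peptide. After mating in shaken culture at 30 °C for 16 h, diploids were selected and their barcode pairs sequenced. The ratio of observed to expected reads was calibrated, replicate by replicate, on BCL2-family standards whose Kd was known from biolayer interferometry. Mating was done six times.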

The variants keep the light chain, the linker and the frameworks of Ab-14 (scFv order VH, a 15-residue (Gly4Ser)3 linker, VL).
VH: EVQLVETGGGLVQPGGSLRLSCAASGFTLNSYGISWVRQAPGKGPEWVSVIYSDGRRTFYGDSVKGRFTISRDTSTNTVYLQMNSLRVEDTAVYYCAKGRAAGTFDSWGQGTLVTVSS
VL: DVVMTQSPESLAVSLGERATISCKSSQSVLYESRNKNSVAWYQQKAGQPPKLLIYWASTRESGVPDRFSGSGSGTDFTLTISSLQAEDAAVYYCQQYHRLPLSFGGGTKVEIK

Variants are written as CDR1, CDR2 and CDR3 of the heavy chain (limits as in the source). Parent: GFTLNSYGIS, VIYSDGRRTFYGDSVK, GRAAGTFDS. Numbers give log10(Kd / nM), so 0 is 1 nM and 3 is 1 µM. Smaller is tighter. A mean of the replicates is given; it leaves out those without a signal. A pair that was not seen in that replicate is written "n.d."; this usually means weak binding, but a binder can also be missed. Values of this round are not directly comparable with the first-round values of the same sequences. In the paper, a design with two or fewer of six values counts as a poor binder. Background: pairings of all heavy chain designs with three empty control strains gave a value in 1% of cases (median 2.08, 5th percentile 0.84). Values in that range, when seen in few replicates, are hard to tell from nonspecific mating. Also given: how often the same scFv was detected with the empty control strains, with their mean in brackets. Of ten entries with the parent sequence, four were seen in most replicates (averages 0.34 to 2.37), three in one and three in none, so single entries are noisy.

CDR-H1	CDR-H2	CDR-H3	replicates, log10 nM	log10 Kd (nM), mean	empty controls
GKSLNSYGIS	VIYSDGRRTAYGDHVK	GRTAGTFDS	0.68 / n.d. / 2.07 / 1.19 / 1.28 / 1.12	1.27	0 of 18
GFSLESYGIS	VIYSDGRRTFYADNVK	GRTAGTFDS	0.45 / 0.01 / -0.09 / 0.00 / -0.27 / 0.02	0.02	0 of 18
GFDLNSYGIS	VIYSDGRRTFYGDSVK	GRAAATFDV	n.d. / n.d. / n.d. / n.d. / n.d. / n.d.	n.d.	0 of 18
GFTLNEYGIS	VIYSDGRRTFYGDSVK	GWVAGTFDT	-0.18 / -0.36 / -0.19 / 1.21 / -0.01 / 0.24	0.12	0 of 18
KFDLNSYGIS	VIYSDGRRTYYGDSVK	GRTAGTFDS	0.21 / -0.06 / 0.28 / 0.06 / 0.17 / 0.43	0.18	1 of 18 (1.88)
GFQLNSYGIS	VIYSDGRRTFYGDNVK	GREAGTFDT	0.25 / -0.06 / 0.21 / 0.39 / -0.05 / 0.44	0.20	0 of 18
GFNLNSYGIS	VIYSDGRRTFYTDSVK	GRAAGTFDS	0.70 / 1.39 / 0.70 / 1.14 / 0.37 / 0.75	0.84	1 of 18 (2.99)
GFELENYGIS	VIYSDGRRTFYGDSVK	GRAAGTFDS	1.17 / 0.91 / 0.35 / 0.55 / 0.22 / 0.63	0.64	1 of 18 (0.50)
GFSLNEYGIS	VIYSDGRRTFYMDSVK	GRTAGTFDA	0.70 / 0.22 / -0.14 / -0.25 / 0.47 / 0.34	0.22	0 of 18
GFNLNSYGIS	VIYSDGRRTFYHDSVK	GKEAGTFDS	-0.62 / -1.15 / -0.58 / -1.31 / -0.10 / -0.98	-0.79	0 of 18
GFWLNDYGIS	VIYSDGRRTFYDDSVK	GRTAGTFDS	n.d. / 0.76 / 0.40 / 0.98 / 0.91 / 1.02	0.81	0 of 18
GFQLNEYGIS	VIYSDGRRTFYGDSVK	GEAAGTFDL	1.13 / 0.91 / 0.78 / 1.08 / 0.51 / 1.33	0.96	0 of 18
GFQLNEYGIS	VIYSDGRRTFYGDSVK	GRYAGTFDT	1.03 / 0.54 / 0.85 / 0.43 / 1.30 / 0.53	0.78	1 of 18 (1.69)
GFTLNSYGIS	VIYSDGRRTFYVDSVK	GQTAGTFDK	n.d. / n.d. / 2.01 / n.d. / n.d. / 0.76	1.39	1 of 18 (2.28)
GFTLNSYGIS	VIYSDGRRTFYGDSVK	GMLAGTFDT	2.83 / 0.68 / 0.54 / 0.99 / 0.91 / 1.54	1.25	0 of 18
GFQLNSYGIS	VIYSDGRRTFYQDQVK	GEAAGTFDS	1.90 / 1.86 / 1.69 / 1.80 / 1.71 / 1.39	1.72	1 of 18 (2.54)
GFTLNSYGIS	VIYSDGRRTFYSDSVK	GRHAGTFDT	1.52 / 1.50 / n.d. / n.d. / n.d. / n.d.	1.51	0 of 18
GFHLNSYGIS	VIYSDGRRTFYVDSVK	GKQAGTFDT	n.d. / n.d. / 1.23 / n.d. / n.d. / n.d.	1.23	0 of 18
GFSLNDYGIS	VIYSDGRRTFYDDRVK	GRTAGTFDS	0.09 / 0.13 / -0.02 / 0.07 / 0.14 / -0.01	0.07	0 of 18
GFSLNEYGIS	VIYSDGKRTFYGDSVK	GRTAGTFWS	-0.82 / -1.46 / -1.26 / -1.62 / -0.88 / -0.98	-1.17	0 of 18
QFDLNSYGIS	VIYSDGRRTFYGDSVK	GKEAGTFDS	1.21 / 0.45 / 1.15 / 0.48 / 0.15 / 0.18	0.60	0 of 18
GFHLNSYGIS	VIYSDGRRTFYRDSVK	GQTAGTFDS	1.27 / 2.24 / 0.94 / 0.88 / 0.98 / 1.80	1.35	0 of 18
GFSLNEYGIS	VIYSDGRRTFYGDSVK	GRAPGTFDS	0.80 / 0.15 / 0.58 / -0.21 / 0.41 / 2.27	0.67	0 of 18
GFTLNSYGIS	VIYSDGRRTFYGDSVK	GKQAGTFDN	n.d. / n.d. / 0.52 / n.d. / n.d. / 0.05	0.29	0 of 18
GFNLNSYGIS	VIYSDGRRTFYIDSVK	GQAAGTFDK	n.d. / 1.23 / 0.31 / n.d. / 1.61 / 1.44	1.15	0 of 18
GFGLNEYGIS	VIYSDGRRTFYMDSVK	GRNAGTFDS	1.29 / 1.19 / 1.58 / 3.29 / 2.84 / 2.34	2.09	1 of 18 (2.42)
GFQLNEYGIS	VIYSDGRRTFYGDSVK	GWTAGTFDT	0.71 / 0.27 / 0.12 / -0.18 / 0.41 / 0.20	0.25	0 of 18
GFQLNSYGIS	VIYSDGRRTFYADKVK	GRQAGTFDS	1.55 / 1.86 / 2.20 / 1.20 / 1.08 / 0.54	1.40	0 of 18
GFDLNSYGIS	VIYSDGRRTFYADDVK	GNAAGTFDN	0.52 / 0.48 / 1.03 / 0.55 / 0.40 / 0.47	0.57	0 of 18
GFQLNEYGIS	VIYSDGRRTFYSDSVK	GKAAGTFDT	-0.32 / -0.40 / -0.17 / -0.68 / -0.51 / -0.19	-0.38	1 of 18 (2.58)
GFTLNSYGIS	VIYADGRRTFYGDDVK	GEAAGTFDK	0.77 / 0.57 / 0.16 / -0.50 / -0.05 / -0.22	0.12	0 of 18
GFSLNEYGIS	VIYSDGRRTFYGDRVK	GRTAGTFDA	n.d. / 0.82 / 0.68 / -0.51 / 1.54 / 0.01	0.51	0 of 18
GFDLNSYGIS	VIYSDGRRTFYTDSVK	GRWAGTFDS	-0.10 / -0.36 / 0.14 / -0.21 / 0.16 / 0.61	0.04	0 of 18
GFELNSYGIS	VIYSDGRRTFYGDSVK	GTTAGTFDQ	-0.34 / -0.32 / 0.08 / 0.06 / -0.36 / 0.50	-0.06	0 of 18
GFSLNSYGIS	VIYSDGRRTFYDDNVK	GRVAGTFDS	0.31 / 0.26 / 0.26 / 0.55 / 0.56 / 0.41	0.39	0 of 18
AFDLNSYGIS	VIYSDGRRTFYADSVK	GNAAGTFDS	0.95 / 1.20 / 1.24 / 1.85 / 1.92 / 1.38	1.42	0 of 18
GFSLNEYGIS	VIYSDGRRTFYSDSVK	GRQAGTFDT	0.18 / -0.40 / -0.12 / -0.76 / -0.40 / -0.25	-0.29	0 of 18
GFELNSYGIS	VIYSDGLRTFYTDSVK	GQAAGTFDS	0.43 / 0.59 / 0.64 / 0.25 / 0.24 / 0.56	0.45	1 of 18 (2.54)
GFTLNSYGIS	VIYSDGKRTFYSDDVK	GQAAGTFDA	0.44 / 0.65 / 1.41 / n.d. / 0.20 / 1.67	0.87	0 of 18
GFVLNQYGIS	VIYSDGRRTFYSDSVK	GEAAGTFDS	0.78 / 0.30 / 0.61 / 0.64 / 0.53 / 0.56	0.57	2 of 18 (2.26)

6 of these entries, quoted again:

{"CDR-H1": "GFDLNSYGIS", "CDR-H2": "VIYSDGRRTFYTDSVK", "CDR-H3": "GRWAGTFDS", "replicates, log10 nM": "-0.10 / -0.36 / 0.14 / -0.21 / 0.16 / 0.61", "log10 Kd (nM), mean": "0.04", "empty controls": "0 of 18"}
{"CDR-H1": "GFTLNSYGIS", "CDR-H2": "VIYSDGRRTFYSDSVK", "CDR-H3": "GRHAGTFDT", "replicates, log10 nM": "1.52 / 1.50 / n.d. / n.d. / n.d. / n.d.", "log10 Kd (nM), mean": "1.51", "empty controls": "0 of 18"}
{"CDR-H1": "GFNLNSYGIS", "CDR-H2": "VIYSDGRRTFYTDSVK", "CDR-H3": "GRAAGTFDS", "replicates, log10 nM": "0.70 / 1.39 / 0.70 / 1.14 / 0.37 / 0.75", "log10 Kd (nM), mean": "0.84", "empty controls": "1 of 18 (2.99)"}
{"CDR-H1": "GFELNSYGIS", "CDR-H2": "VIYSDGLRTFYTDSVK", "CDR-H3": "GQAAGTFDS", "replicates, log10 nM": "0.43 / 0.59 / 0.64 / 0.25 / 0.24 / 0.56", "log10 Kd (nM), mean": "0.45", "empty controls": "1 of 18 (2.54)"}
{"CDR-H1": "GFDLNSYGIS", "CDR-H2": "VIYSDGRRTFYGDSVK", "CDR-H3": "GRAAATFDV", "replicates, log10 nM": "n.d. / n.d. / n.d. / n.d. / n.d. / n.d.", "log10 Kd (nM), mean": "n.d.", "empty controls": "0 of 18"}
{"CDR-H1": "GFSLNEYGIS", "CDR-H2": "VIYSDGKRTFYGDSVK", "CDR-H3": "GRTAGTFWS", "replicates, log10 nM": "-0.82 / -1.46 / -1.26 / -1.62 / -0.88 / -0.98", "log10 Kd (nM), mean": "-1.17", "empty controls": "0 of 18"}